Test results taken from US20060079453A1, “Hla binding peptides and their uses” (priority 2002, published 2006).

Protein sequences, listed by entry. Tags and fused reporters are not part of them. Residues count along the entry.
UniProt P04439, 25-365: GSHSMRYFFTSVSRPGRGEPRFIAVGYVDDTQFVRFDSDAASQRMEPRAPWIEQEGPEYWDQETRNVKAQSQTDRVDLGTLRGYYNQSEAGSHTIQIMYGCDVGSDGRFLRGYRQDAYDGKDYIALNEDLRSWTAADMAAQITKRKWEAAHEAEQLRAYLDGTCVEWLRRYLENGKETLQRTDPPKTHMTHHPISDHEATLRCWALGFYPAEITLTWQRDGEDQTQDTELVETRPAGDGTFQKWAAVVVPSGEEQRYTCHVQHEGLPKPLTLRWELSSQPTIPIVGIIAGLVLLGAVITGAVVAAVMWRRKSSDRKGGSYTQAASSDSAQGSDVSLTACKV

What was measured:
Experiment in all cases: biochemical
HLA-A*0301 = HLA-A*0301 (Homo sapiens, UniProt P04439); format: binding
HLA-A*1101 = HLA-A*1101 (Homo sapiens, UniProt P04439, A114D/D185E/E176A/F33Y/L180Q/S129P/T187R); format: binding
HLA-A*3301 = HLA-A*3301 (Homo sapiens, UniProt P04439, A270S/D185E/E176V/E277Q/E87N/F33T/G231S/H175R/I121M/I218V/I322F/K168Q/K210R/L300P/L318F/M331R/P217A/Q86R/Q94H/R138Q/T323A/T345S/T97I/V358M/Y195H); format: binding
HLA-A*6801 = HLA-A*6801 (Homo sapiens, UniProt P04439, A269V/D185E/E176V/E277Q/E87N/F33Y/G231S/I121M/I166T/I218V/L180W/L300P/L318F/N151K/P208A/P217A/Q86R/R169H/T345S); format: binding
HLA-A*3101 = HLA-A*3101 (Homo sapiens, UniProt P04439, A270S/D185E/E176V/E277Q/F33T/G231S/G80R/H175R/I121M/I218V/I322F/K168Q/L300P/L318F/M331R/P217A/Q94H/R138Q/T323A/T345S/T97I/V358M); format: binding
HLA-DR DRB1*0301 (DR3) = HLA-DR DRB1*0301 (DR3) (Homo sapiens, UniProt P01903+P01911, A100K/A102G/A103R/A169T/F55Y/I96L/K41T/L162R/M171V/P40S/Q125H/Q178H/Q39Y/R42S/S66N/T106N/T262R/W38E/Y61H); format: binding
[1] = molecular target: HLA-DQ DQA1*0501/B*0201 (DQ2) (Homo sapiens, UniProt P01909+P01920, A45G/A70V/D89A/E106A/E77G/E98D/H199R/L107V/N214S/P84L/P87L/T103K/T109R/T172A/T60S/V78E/V99I/Y58L/Y62S/Y69I/Y79F)
[2] = molecular target: HLA-DQ DQA1*0301/B*0302 (DQ8) (Homo sapiens, UniProt P01909+P01920, A209T/A45G/C70Q/D89A/DUP78-78/E183D/E77G/F237L/G63E/H199R/I129T/K197E/L178F/L74F/L98V/Q57E/Q76R/S185I/S97I/T217I/T49S/V73L/Y58L)
HLA-DR DRB1*0701 (DR7) = HLA-DR DRB1*0701 (DR7) (Homo sapiens, UniProt P01903+P01911, A100R/A102G/A103Q/D57E/D86V/E43K/F76Y/K127E/L162R/M171V/P40G/Q125H/Q99D/R33Q/R42Y/R54Q/S133A/S66F/T210M/V115G/Y107V/Y59L/Y89S); format: binding; conditions: DRB1 *0701
HLA-DR DRB1*0802 (DR8) = HLA-DR DRB1*0802 (DR8) (Homo sapiens, UniProt P01903+P01911, A100R/A103L/A169T/F76Y/H45Y/I96F/K41T/L162R/M171V/P40S/Q125H/Q178H/Q39Y/Q99D/R218S/R42G/S66Y/V115G/W38E); format: binding
HLA-DR DRB1*1101 (DR11) = HLA-DR DRB1*1101 (DR11) (Homo sapiens, UniProt P01903+P01911, A100R/A169T/A87E/I96F/K41T/L162R/M171V/P40S/Q125H/Q178H/Q39Y/Q99D/R42S/S66Y/T262R/V115G/W38E); format: binding; conditions: DRB1 *1101

C[C@H](N)C(=O)N[C@@H](C)C(=O)N[C@@H](Cc1ccc(O)cc1)C(=O)N[C@@H](C)C(=O)N[C@@H](C)C(=O)N[C@@H](CCC(N)=O)C(=O)NCC(=O)N[C@@H](Cc1ccc(O)cc1)C(=O)N[C@@H](CCCCN)C(=O)O
IC50 (HLA-A*0301): 0.018 µM
IC50 (HLA-A*1101): 0.018 µM
IC50 (HLA-A*3301): 14.1 µM
IC50 (HLA-A*6801): 0.034 µM

CC(C)C[C@H](NC(=O)[C@H](CC(=O)O)NC(=O)[C@H](C)NC(=O)[C@H](Cc1ccccc1)NC(=O)[C@H](C)N)C(=O)N[C@H](C(=O)N[C@H](C(=O)N[C@H](C(=O)N[C@@H](Cc1ccc(O)cc1)C(=O)N[C@@H](CCCCN)C(=O)O)C(C)C)C(C)C)[C@@H](C)O
IC50 (HLA-A*3301): 13.6 µM

CC[C@H](C)[C@H](NC(=O)[C@H](CS)NC(=O)[C@H](CCCNC(=N)N)NC(=O)[C@@H](NC(=O)[C@H](CC(C)C)NC(=O)[C@H](CC(C)C)NC(=O)[C@@H](N)CC(=O)O)[C@@H](C)CC)C(=O)N[C@@H](CC(N)=O)C(=O)N[C@@H](CS)C(=O)N[C@@H](CCC(N)=O)C(=O)N[C@@H](CCCCN)C(=O)O
IC50 (HLA-A*0301): 2.92 µM
IC50 (HLA-A*1101): 0.935 µM
IC50 (HLA-A*3101): 4.88 µM
IC50 (HLA-A*3301): 0.029 µM

CC[C@H](C)[C@H](NC(=O)[C@@H](NC(=O)[C@H](CC(C)C)NC(=O)[C@H](CC(=O)O)NC(=O)[C@@H](NC(=O)[C@@H](N)Cc1ccccc1)C(C)C)[C@@H](C)O)C(=O)N[C@H](C(=O)N[C@@H](Cc1ccc(O)cc1)C(=O)N[C@@H](CCCNC(=N)N)C(=O)O)C(C)C
IC50 (HLA-A*6801): 0.138 µM

CC[C@H](C)[C@H](NC(=O)[C@H](C)NC(=O)CNC(=O)[C@@H](N)Cc1c[nH]cn1)C(=O)N[C@H](C(=O)N[C@@H](CO)C(=O)N[C@@H](CO)C(=O)N[C@@H](CC(N)=O)C(=O)N[C@H](C(=O)N[C@@H](CCCCN)C(=O)O)[C@@H](C)O)[C@@H](C)O
IC50 (HLA-A*6801): 1.24 µM

CC[C@H](C)[C@H](NC(=O)[C@H](C)NC(=O)[C@H](CCC(=O)O)NC(=O)[C@@H](N)CCCCN)C(=O)N[C@@H](CO)C(=O)N1CCC[C@H]1C(=O)N1CCC[C@H]1C(=O)N[C@@H](CC(=O)O)C(=O)N[C@@H](C)C(=O)N[C@@H](C)C(=O)N[C@@H](CO)C(=O)N[C@@H](C)C(=O)N[C@@H](C)C(=O)N1CCC[C@H]1C(=O)N[C@@H](CC(C)C)C(=O)O
IC50 (HLA-DR DRB1*0301 (DR3)): 48.6 µM
IC50 [1]: 7.29 µM
IC50 [2]: 0.96 µM

CC[C@H](C)[C@H](NC(=O)[C@H](Cc1ccc(O)cc1)NC(=O)[C@H](CC(C)C)NC(=O)[C@@H](N)CC(C)C)C(=O)N[C@@H](CC(C)C)C(=O)N[C@@H](Cc1ccccc1)C(=O)N[C@@H](CC(C)C)C(=O)N[C@H](C(=O)N[C@@H](CCCCN)C(=O)O)C(C)C
IC50 (HLA-A*0301): 0.013 µM
IC50 (HLA-A*3101): 90.7 µM
IC50 (HLA-A*6801): 5.55 µM

CC(C)C[C@H](NC(=O)[C@H](C)NC(=O)[C@H](CCC(N)=O)NC(=O)CNC(=O)[C@@H](N)CCCNC(=N)N)C(=O)N[C@@H](CC(C)C)C(=O)N[C@H](C(=O)N[C@@H](CC(N)=O)C(=O)N[C@@H](CO)C(=O)N[C@@H](CO)C(=O)N[C@@H](CCC(N)=O)C(=O)N1CCC[C@H]1C(=O)N[C@@H](Cc1c[nH]c2ccccc12)C(=O)N[C@@H](CCC(=O)O)C(=O)N1CCC[C@H]1C(=O)O)C(C)C
IC50 (HLA-DR DRB1*0301 (DR3)): 93.9 µM
IC50 (HLA-DR DRB1*0701 (DR7)): 0.319 µM
IC50 (HLA-DR DRB1*0802 (DR8)): 29.5 µM
IC50 (HLA-DR DRB1*1101 (DR11)): 7.7 µM
IC50 [1]: 13.4 µM
